Assay results: ChEMBL document CHEMBL1157677, “Silicon switch approach in TRPV1 antagonist MK-056 and its analogues” (Bioorg Med Chem, 2010)

Chains of the proteins cited; added tags and fusions are not shown.
UniProt O35433, whole entry: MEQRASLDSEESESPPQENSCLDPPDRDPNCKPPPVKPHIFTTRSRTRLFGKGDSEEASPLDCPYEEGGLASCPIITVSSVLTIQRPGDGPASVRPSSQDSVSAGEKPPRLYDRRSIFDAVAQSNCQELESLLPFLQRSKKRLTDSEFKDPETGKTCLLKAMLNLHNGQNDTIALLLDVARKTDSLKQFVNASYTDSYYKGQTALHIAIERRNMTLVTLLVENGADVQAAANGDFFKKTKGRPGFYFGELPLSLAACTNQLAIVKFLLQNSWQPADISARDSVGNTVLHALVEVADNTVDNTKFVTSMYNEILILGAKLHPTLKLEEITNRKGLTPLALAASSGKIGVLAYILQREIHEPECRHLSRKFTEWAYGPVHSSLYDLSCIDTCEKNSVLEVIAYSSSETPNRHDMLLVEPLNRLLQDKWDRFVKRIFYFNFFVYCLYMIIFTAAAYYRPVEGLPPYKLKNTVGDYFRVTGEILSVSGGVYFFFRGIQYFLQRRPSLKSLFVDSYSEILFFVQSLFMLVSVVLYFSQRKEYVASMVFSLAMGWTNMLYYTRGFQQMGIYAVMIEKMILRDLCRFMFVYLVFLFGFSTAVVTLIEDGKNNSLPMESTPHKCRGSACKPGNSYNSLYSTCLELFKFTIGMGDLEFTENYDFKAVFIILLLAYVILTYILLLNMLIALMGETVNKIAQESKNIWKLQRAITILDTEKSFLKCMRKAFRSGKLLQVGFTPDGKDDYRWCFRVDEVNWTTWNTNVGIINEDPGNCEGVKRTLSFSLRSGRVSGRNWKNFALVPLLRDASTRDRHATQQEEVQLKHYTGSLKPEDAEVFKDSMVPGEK

Molecular target: Transient receptor potential cation channel subfamily V member 1 (Rattus norvegicus, UniProt O35433)
Assay: Agonist activity at TRPV1 in Sprague-Dawley rat DRG neuron assessed as intracellular 45Ca2+ influx by scintillation counting
Format: functional, cell-based

- EC50: > 100 µM
SMILES: CC(C)(C)c1ccc(CNC(=S)NCc2ccc(NS(C)(=O)=O)cc2)cc1
